Our source for the activation values is PubChem BioAssay AID743287 (Broad Institute, 2014).

SMILES strings stand for the structures. The entries are a selection whose mix differs from that of the whole data set. Active and inactive are the calls of the source.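 The calls were made as follows: active = lowest replicate activation of at least 40%, so every replicate reaches that level; inactive = the rest.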

The nature of the assay: primary screen for activators of insulin secretion dependent on glucose, INS-1E cells, GLuc reporter luminescence (AID 743287).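 Also: 0% = median of neutral control wells and 100% = median of IBMX positive control wells.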 Particulars: INS-1E GLuc reporter insulin secretion, 2-3 h, at 16.6 µM, active compounds read high.
On to `CSc1ccccc1C(=O)NCC1(N2CCCCC2)CCCCC1`, for which the activation is inactive: 9.25%.
In the case of `Cc1cccc(NC2(C#N)CCN(Cc3ccccc3)CC2)c1` it was inactive: 7.53%; in that of `O=C(NCC1(N2CCCCC2)CCCCC1)c1ccc(=O)[nH]c1`, inactive: -4.65%.
In the case of `CCCCn1nnnc1C(c1cccs1)N1CCC(n2c(=O)[nH]c3ccccc32)CC1` (stereo not given) it was inactive: -9.81%.
In the case of `CCCCn1nnnc1C(CC)N1CCC(n2c(=O)[nH]c3ccccc32)CC1` (stereo not given) it was inactive: -25.8%.
In the case of `O=C(NCC1(N2CCCCC2)CCCCC1)c1cccs1`, the activation is inactive: 6.24%.
The figure for `COc1ccc(C(=O)NCC2(N3CCCCC3)CCCCC2)cc1` is inactive: 5.18%; for `CCC(c1nnnn1C1CCCC1)N1CCC(n2c(=O)[nH]c3ccccc32)CC1` (stereo not given) it is inactive: -27.9%.
In the case of `COc1ccc(C(=O)NCC2(N3CCCCC3)CCCCC2)c(OC)c1OC`, the activation was inactive: 0.189%.
In the case of `CC(C)(C)OC(=O)N1CCC(N(C(=O)c2ccccc2)c2ccc(F)cc2)CC1` it was inactive: -14.1%; in that of `CCOC(=O)N1CCC(Nc2ccc(OC)cc2)CC1`, inactive: -4.08%; in that of `CCCCn1nnnc1C(c1ccc(OC)cc1)N1CCC(n2c(=O)[nH]c3ccccc32)CC1` (stereo not given), inactive: -17.7%.
The figure for `O=c1[nH]c2ccccc2n1C1CCN(C(c2cc3ccccc3o2)c2nnnn2C2CCCCC2)CC1` (stereo not given) is inactive: -9.36%; for `O=C(OC1CN2CCC1CC2)C1c2ccccc2Oc2ccccc21` (stereo not given) it is inactive: 2%; for `O=C(NCC1(N2CCCCC2)CCCCC1)c1ccc(Cl)s1` it is inactive: 18.8%.
In the case of `N#CC1(Nc2ccccc2)CCN(Cc2ccccc2)CC1` it was inactive: -10.3%; in that of `COc1ccc(Cl)cc1C(=O)NCC1(N2CCOCC2)CCCCC1`, inactive: 11.9%; in that of `O=c1[nH]c2ccccc2n1C1CCN(C(c2ccccc2OC(F)(F)F)c2nnnn2C2CCCCC2)CC1` (stereo not given), inactive: -6.34%.
`O=C(NCC1(N2CCCCC2)CCCCC1)c1ccc(Cl)nc1`: the activation is inactive: 0.011%.
The figure for `Cc1cc(C)cc(N(C(=O)c2ccccc2)C2CCN(C(=O)OC(C)(C)C)CC2)c1` is inactive: -28.9%; for `O=C(NCC1(N2CCCCC2)CCCCC1)c1ccc(F)cc1` it is inactive: 0.163%; for `CCCCOc1ccc(C(=O)NCC2(N3CCOCC3)CCCCC2)cc1` it is inactive: -14.7%.
In the case of `CCCCn1nnnc1C(c1cc2ccccc2o1)N1CCC(n2c(=O)[nH]c3ccccc32)CC1` (stereo not given) it was inactive: -11.3%.
Take `O=P1(N(CCCl)CCCl)SCCCS1`: the activation is inactive: 4.62%.
In the case of `CCOC(=O)N1CCC(Nc2ccc(F)cc2)CC1` it was inactive: 3.59%; in that of `CC(C)(C)n1nnnc1C(c1ccccc1)N1CCC(n2c(=O)[nH]c3ccccc32)CC1` (stereo not given), inactive: -4.34%.
As for `O=c1[nH]c2ccccc2n1C1CCN(C(c2cccc3ccccc23)c2nnnn2C2CCCC2)CC1` (stereo not given), the activation is inactive: -28.8%.
The figure for `COc1cc(C(=O)NCC2(N(C)C)CCCCC2)ccc1OC(F)F` is inactive: -8.49%; for `O=c1[nH]c2ccccc2n1C1CCN(C(c2ccccc2)c2nnnn2C2CCCCC2)CC1` (stereo not given) it is inactive: -25.4%; for `O=C(NCC1(N2CCCCC2)CCCCC1)c1cccc([N+](=O)[O-])c1` it is inactive: 0.47%.
The figure for `CSc1ccc(C(=O)NCC2(N3CCOCC3)CCCCC2)cc1` is inactive: -1.33%.
Turning to `CCN1CCC(Nc2ccc(Cl)cc2)CC1`, the activation is inactive: -11.9%.
With `O=c1[nH]c2ccccc2n1C1CCN(C(c2ccccc2OC(F)(F)F)c2nnnn2C2CCCC2)CC1` (stereo not given), the activation is inactive: -21.6%.
The figure for `CC(C)(C)n1nnnc1C(c1ccccc1OC(F)(F)F)N1CCC(n2c(=O)[nH]c3ccccc32)CC1` (stereo not given) is inactive: -20.8%; for `O=C(NCC1(N2CCCCC2)CCCCC1)c1ccc(OC(F)F)cc1` it is inactive: -8.6%.
Take `CCCCn1nnnc1C(c1cccc2ccccc12)N1CCC(n2c(=O)[nH]c3ccccc32)CC1` (stereo not given): the activation is inactive: -32.4%.
The figure for `COc1ccc(NC2CCN(C(=O)OC(C)(C)C)CC2)cc1` is inactive: -8.42%.
In the case of `CC(C)c1ccc(C(=O)NCC2(N3CCOCC3)CCCCC2)cc1`, the activation was inactive: 26.3%.
On to `CN1CCN(CCOC(=O)C(O)(c2ccccc2)c2ccccc2)CC1`, for which the activation is inactive: 11%.
The figure for `O=C(NCC1(N2CCOCC2)CCCCC1)c1cc(=O)[nH]c2ccccc12` is inactive: 3.42%.
In the case of `COc1cc(C(=O)NCC2(N3CCCCC3)CCCCC2)ccc1OC(F)F` it was inactive: -1.19%; in that of `O=C(NCC1(N2CCCCC2)CCCCC1)c1cccc(C(F)(F)F)c1`, inactive: 28.7%.
The figure for `CCCCn1nnnc1C(c1ccnc2ccccc12)N1CCC(n2c(=O)[nH]c3ccccc32)CC1` (stereo not given) is inactive: -4.08%; for `COc1cc(OC)c(C(=O)NCC2(N(C)C)CCCCC2)cc1OC` it is inactive: -3.65%.
`O=C(NCC1(N2CCOCC2)CCCCC1)c1cc(F)c(F)cc1Cl`: the activation is inactive: -1.84%.
In the case of `CCC(c1nnnn1C(C)(C)C)N1CCC(n2c(=O)[nH]c3ccccc32)CC1` (stereo not given) it was inactive: -15%; in that of `CN(C)c1cccc(C(=O)NCC2(N3CCCCC3)CCCCC2)c1`, inactive: -8.91%.
In the case of `CC(C)c1ccc(NC2CCN(C(=O)OC(C)(C)C)CC2)cc1` it was inactive: -48%; in that of `Cc1ccc(C(=O)NCC2(N(C)C)CCCCC2)o1`, inactive: -2.68%; in that of `CCCOc1ccc(C(=O)NCC2(N(C)C)CCCCC2)cc1OC`, inactive: 18.9%.
The figure for `COc1ccc(C(c2nnnn2C2CCCC2)N2CCC(n3c(=O)[nH]c4ccccc43)CC2)cc1` (stereo not given) is inactive: -16.4%.
Regarding `O=C(NCC1(N2CCCCC2)CCCCC1)c1cncc(Br)c1`, the activation is inactive: -9.19%.
In the case of `CN1CCC(Nc2cccc(F)c2)CC1` it was inactive: 0.998%.
The figure for `COc1ccc(C(=O)NCC2(N3CCOCC3)CCCCC2)cc1OC` is inactive: 7.3%; for `O=c1[nH]c2ccccc2n1C1CCN(C(c2ccnc3ccccc23)c2nnnn2C2CCCC2)CC1` (stereo not given) it is inactive: -7.32%; for `O=c1[nH]c2ccccc2n1C1CCN(C(c2cccs2)c2nnnn2C2CCCCC2)CC1` (stereo not given) it is inactive: -8.15%.
The figure for `CCCCn1nnnc1C(c1ccccc1)N1CCC(n2c(=O)[nH]c3ccccc32)CC1` (stereo not given) is inactive: -20.1%.
Consider `COc1cc(C(=O)NCC2(N3CCOCC3)CCCCC2)cc(OC)c1C`, for which the activation was inactive: -1.36%.
In the case of `CCCCn1nnnc1C(c1cccc(OC)c1OC)N1CCC(n2c(=O)[nH]c3ccccc32)CC1` (stereo not given) it was inactive: -13.3%; in that of `O=C(OC1CN2CCC1CC2)C1c2ccccc2C=Cc2ccccc21` (stereo not given), inactive: 16.3%.
The figure for `O=c1[nH]c2ccccc2n1C1CCN(C(c2cccs2)c2nnnn2C2CCCC2)CC1` (stereo not given) is inactive: -15.8%.
In the case of `COc1cccc(C(c2nnnn2C(C)(C)C)N2CCC(n3c(=O)[nH]c4ccccc43)CC2)c1OC` (stereo not given) it was inactive: -6.94%; in that of `CCOC(=O)N1CCC(Nc2ccc(C)cc2)CC1`, inactive: -11%.
On to `CC(C)(C)OC(=O)N1CCC(N(C(=O)c2ccccc2)c2ccc(Cl)cc2)CC1`, for which the activation was inactive: -37.7%.
In the case of `N#Cc1ccc(C(=O)NCC2(N3CCCCC3)CCCCC2)cc1` it was inactive: 1.15%; in that of `CC(C)(C)n1nnnc1C(c1cccc2ccccc12)N1CCC(n2c(=O)[nH]c3ccccc32)CC1` (stereo not given), inactive: 10.2%; in that of `C/C(N)=N\P(=O)(Oc1ccccc1)Oc1ccccc1`, inactive: 2.35%.
The figure for `CCCN1CCC(Nc2cc(OC)cc(OC)c2)CC1` is inactive: -9.75%; for `O=c1[nH]c2ccccc2n1C1CCN(C(c2ccccc2)c2nnnn2C2CCCC2)CC1` (stereo not given) it is inactive: -4.62%; for `Cc1cc(N(CCCl)CCCl)ccc1C=O` it is inactive: -0.345%.
The figure for `CN(C)C1(CNC(=O)c2cccc(C#N)c2)CCCCC1` is inactive: 0.239%; for `Cc1ccc(C(=O)NCC2(N3CCCCC3)CCCCC2)o1` it is inactive: 11.1%; for `Fc1ccccc1NC1CCN(Cc2ccccc2)CC1` it is inactive: 22.2%.
On to `O=c1[nH]c2ccccc2n1C1CCN(C(c2ccnc3ccccc23)c2nnnn2C2CCCCC2)CC1` (stereo not given), for which the activation was inactive: -19.5%.
The figure for `COc1cc(OC)cc(C(=O)NCC2(N3CCCCC3)CCCCC2)c1` is inactive: 7.34%; for `CC(=O)N(c1ccccc1)C1CCNCC1` it is inactive: -3.86%.
In the case of `COc1cccc(C(c2nnnn2C2CCCCC2)N2CCC(n3c(=O)[nH]c4ccccc43)CC2)c1OC` (stereo not given) it was inactive: -26.2%; in that of `CCC(c1nnnn1C1CCCCC1)N1CCC(n2c(=O)[nH]c3ccccc32)CC1` (stereo not given), inactive: -18.4%; in that of `O=C(NCC1(N2CCCCC2)CCCCC1)c1ccco1`, inactive: 12.1%.
Take `Cn1c(=O)[nH]cc(N(CCCl)CCCl)c1=O`: the activation is inactive: 34.8%.
The figure for `CN(C)c1ccc(C(=O)NCC2(N3CCCCC3)CCCCC2)cc1` is inactive: -6.68%; for `Cc1ccccc1NC1(C#N)CCN(Cc2ccccc2)CC1` it is inactive: 9.95%.
In the case of `CC(C)(C)n1nnnc1C(c1ccnc2ccccc12)N1CCC(n2c(=O)[nH]c3ccccc32)CC1` (stereo not given) it was inactive: -28.1%; in that of `COc1ccc(C(c2nnnn2C2CCCCC2)N2CCC(n3c(=O)[nH]c4ccccc43)CC2)cc1` (stereo not given), inactive: 4.6%; in that of `CCN1CCC(Nc2cccc(F)c2)CC1`, inactive: 7.44%.
The figure for `CCCOc1ccc(C(=O)NCC2(N(C)C)CCCCC2)cc1` is inactive: -2.88%; for `O=c1[nH]c2ccccc2n1C1CCN(C(c2cc3ccccc3o2)c2nnnn2C2CCCC2)CC1` (stereo not given) it is inactive: 5.45%; for `CC(C)(C)OC(=O)N1CCC(Nc2ccccc2)CC1` it is inactive: -21.5%.
As to `NN(c1ccccc1)C1CCN(CCc2ccccc2)CC1`, the activation was inactive: -21.1%.
`O=C(O)C1(Nc2ccccc2)CCN(Cc2ccccc2)CC1`: the activation was inactive: -5.87%.
The figure for `CN1CCC(Nc2ccc(F)c(Cl)c2)CC1` is inactive: -7.92%; for `CN1CCC(Nc2ccc(Cl)cc2)CC1` it is inactive: 3.81%.
As for `COc1cccc(C(=O)N(c2cc(C)cc(C)c2)C2CCN(C(=O)OC(C)(C)C)CC2)c1`, the activation is inactive: -27.1%.
The figure for `COc1cc(OC)cc(C(=O)NCC2(N3CCOCC3)CCCCC2)c1` is inactive: 8.89%.
Consider `COc1cccc(C(c2nnnn2C2CCCC2)N2CCC(n3c(=O)[nH]c4ccccc43)CC2)c1OC` (stereo not given), for which the activation was inactive: -14.3%.
